Target: AR protein (Homo sapiens, UniProt P10275)
Test: Western blotting of AR protein degradation in VCaP cells
Assay type: cell-based
Conditions: 1 μM

Chains of the proteins cited; added tags and fusions are not shown. Lines headed by an entry give the natural chain unless they say otherwise; changes in a name come on top.
UniProt P10275: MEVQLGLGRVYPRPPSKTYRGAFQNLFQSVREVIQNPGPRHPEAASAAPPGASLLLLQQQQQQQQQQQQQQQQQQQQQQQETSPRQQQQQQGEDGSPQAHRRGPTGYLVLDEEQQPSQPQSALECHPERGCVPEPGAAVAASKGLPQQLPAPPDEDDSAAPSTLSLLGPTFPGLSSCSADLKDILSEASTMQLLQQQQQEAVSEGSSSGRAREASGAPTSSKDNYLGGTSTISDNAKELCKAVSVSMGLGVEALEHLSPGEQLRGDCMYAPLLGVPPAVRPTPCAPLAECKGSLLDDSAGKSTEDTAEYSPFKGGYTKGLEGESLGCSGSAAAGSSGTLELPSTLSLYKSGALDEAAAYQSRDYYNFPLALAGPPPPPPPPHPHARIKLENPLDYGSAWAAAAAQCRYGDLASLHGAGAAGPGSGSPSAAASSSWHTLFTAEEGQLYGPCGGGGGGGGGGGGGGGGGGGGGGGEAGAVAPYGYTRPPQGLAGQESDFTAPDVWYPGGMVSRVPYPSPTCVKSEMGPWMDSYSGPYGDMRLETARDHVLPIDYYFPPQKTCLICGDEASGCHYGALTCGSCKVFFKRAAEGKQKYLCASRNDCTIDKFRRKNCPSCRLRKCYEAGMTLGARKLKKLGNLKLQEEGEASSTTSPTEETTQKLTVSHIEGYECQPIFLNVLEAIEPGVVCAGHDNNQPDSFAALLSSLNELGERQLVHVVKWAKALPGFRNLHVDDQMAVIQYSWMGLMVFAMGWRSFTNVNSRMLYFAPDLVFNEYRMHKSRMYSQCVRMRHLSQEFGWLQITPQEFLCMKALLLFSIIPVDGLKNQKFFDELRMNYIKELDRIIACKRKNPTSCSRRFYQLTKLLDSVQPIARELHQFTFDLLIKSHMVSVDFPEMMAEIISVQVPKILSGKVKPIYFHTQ

Compound: CN(c1ccc(C#N)c(Cl)c1)[C@H]1CC[C@H](NC(=O)c2ccc(N3CCN(C4CCN(c5ccc6c(c5)C(=O)N(C5CCC(=O)NC5=O)C6=O)CC4)CC3)cc2)CC1 (stereo partly shown) [Cpd. No. 235, N-((1r,4r)-4-((3-chloro-4-cyanophenyl)(methyl)amino)cyclohexyl)-4-(4-(1-(2-(2,6-dioxopiperidin-3-yl)-1,3-dioxoisoindolin-5-yl)piperidin-4-yl)piperazin-1-yl)benzamide]
- % AR protein degradation in VCaP Cells: 95%
